Binding of CDR-mutated scFvs to a peptide of the spike HR2 region

The measurements come from Li et al. 2023 (doi:10.1038/s41467-023-39022-2) through the FLAb antibody collection.

Target: peptide PDVDLGDISGINAS, taken from heptad repeat 2 (HR2) of SARS-CoV-2 spike.

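These sequences belong to a second round, designed from the earlier measurements on random variants of the parent. Group labels follow the data file (Ctrl: baseline library sampled from a position-specific scoring matrix, with some repeated check sequences; En: ensemble of fine-tuned language models; GP: Gaussian process model; HC: hill climbing; Gen: genetic algorithm; Gibbs: Gibbs sampling; a sequence that several methods proposed may carry one label only). In AlphaSeq, yeast of one mating type display the scFv and yeast of the other type display the target. Mating (16 h, 30 °C) was followed by selection of diploids and sequencing of their barcodes. Each replicate has its own calibration line, from reference interactions of the BCL2 family. Each pool was mated in six replicate cultures.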

The variants keep the heavy chain, the linker and the frameworks of Ab-14 (scFv order VH, a 15-residue (Gly4Ser)3 linker, VL).
VH: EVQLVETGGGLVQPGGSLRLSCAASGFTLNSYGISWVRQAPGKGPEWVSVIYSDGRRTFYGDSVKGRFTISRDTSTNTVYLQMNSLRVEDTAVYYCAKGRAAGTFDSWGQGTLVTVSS
VL: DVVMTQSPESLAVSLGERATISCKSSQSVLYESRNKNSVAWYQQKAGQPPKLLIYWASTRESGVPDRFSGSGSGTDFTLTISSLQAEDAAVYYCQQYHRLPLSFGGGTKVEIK

Each variant is given by its three light chain CDRs, as the data file delimits them; those of the parent are KSSQSVLYESRNKNSVA, WASTRES, QQYHRLPLS.
This list holds designs with more than six substitutions.
Scale: log10 of Kd in nM, estimated from mating counts; low values are strong binders.
A mean of the replicates is given; it leaves out those without a signal.
A pair that was not seen in any replicate is written "nd"; this usually means weak binding, but a binder can also be missed.
The range of this assay differs from that of the first round, and the authors advise against merging the two.
Of ten entries with the parent sequence, four were seen in most replicates (averages 0.34 to 2.37), three in one and three in none, so single entries are noisy.
Background: pairings of all light chain designs with three empty control strains gave a value in 4% of cases (median 2.64, 5th percentile 1.59). Values in that range, when seen in few replicates, are hard to tell from nonspecific mating. Also given: how often the same scFv was detected with the empty control strains.
The authors averaged sequences with at least three values out of six and counted those with two or fewer as poor binders.

| CDR-L1 | CDR-L2 | CDR-L3 | group | log10 Kd (nM), mean | detected | signal with controls |
|---|---|---|---|---|---|---|
| KLSGIMRLESKKSNSIA | EMTTRGE | QQYDRLPLS | En_Gen | 0.60 | 6 of 6 | 2 of 18 |
| LVDQSQLYEQRMKNSVA | EASLRES | QQYHRLPLS | GP_Gibbs | 1.56 | 1 of 6 | 0 of 18 |
| MMSQVHGLGQRHRNNVA | QTSTREP | QQYDRLPLI | En_Gen | 1.56 | 6 of 6 | 0 of 18 |
| KLSEFMRGLMLRKDSIA | DNNTRGS | QQYDRLPLS | En_Gen | 1.74 | 6 of 6 | 1 of 18 |
| KLYEMMALTMANIRNVA | DNNTRED | QQYNRLPLS | En_Gen | 1.96 | 6 of 6 | 0 of 18 |
| KFSQSELYEERNQNSVA | GASTRLE | QQYHRLPLS | GP_Gibbs | 0.34 | 6 of 6 | 0 of 18 |
| GVDHTMYSAQEAPNSIA | NAEQSNI | QQYARLPLS | En_Gibbs | 0.17 | 6 of 6 | 0 of 18 |
| KISQSVGYEDRNKNSVA | NAQQRMQ | QQYHRLPLS | GP_Gibbs | 0.08 | 6 of 6 | 0 of 18 |
| KLSMSWEYESRNSNSVA | NASTRET | QQYHRLPLA | GP_Gibbs | 0.98 | 6 of 6 | 0 of 18 |
| KMVKAESEGDRHAANIA | NANKATD | QQYYRLPLA | En_Gibbs | 0.66 | 6 of 6 | 0 of 18 |
| KLLQTVMNETRNRNNVA | HMTTRED | QQYHTLPLS | En_HC | 1.75 | 4 of 6 | 1 of 18 |
| MLSQMTGLGQKVRNSVA | QASMRFN | QQYHRLPLI | En_Gen | 2.12 | 5 of 6 | 1 of 18 |
| TISQSVNMTSRGKNSVA | QAEMRES | QQYDRLPLS | En_HC | 1.54 | 6 of 6 | 1 of 18 |
| KVSQSAPYEDRCFNNVA | HASQRES | QQYHRLPLS | GP_Gibbs | 0.37 | 6 of 6 | 1 of 18 |
| QLMGQGDHSIKHANSIA | NVDIVDM | QQYAHLPLS | En_Gibbs | 2.13 | 1 of 6 | 1 of 18 |
| KLSQEDWYQSRMDNSVA | DASTRES | QQYHRLPLS | GP_Gibbs | -0.12 | 6 of 6 | 1 of 18 |
| KLTHVTGTEKVHGNNVA | EMETRER | QQYNRLPLA | En_Gen | 0.78 | 6 of 6 | 0 of 18 |
| KLTEMFQHTSKQKNNIA | ERSTREE | QQYHHLPLS | En_HC | 0.29 | 6 of 6 | 0 of 18 |
| SIYDATGMESRNKNPIA | DVSTRPS | QQYHRLPLS | En_HC | -0.06 | 6 of 6 | 0 of 18 |
| KLSMTMLMESRHKNSVA | ENSTREE | QHYHRLPLS | En_HC | 4.81 | 1 of 6 | 2 of 18 |
| RLRFQDLMWSYDANNIA | GATLSIE | QQYGRLPLT | En_Gibbs | 0.65 | 6 of 6 | 0 of 18 |
| ILQQSMLYESRNKNSVA | DASVRED | QQYHRLPLS | GP_Gibbs | 2.05 | 5 of 6 | 2 of 18 |
| NISINQADEYAMRNNIA | NTSWKAI | QQYFHLPLM | En_Gibbs | 0.67 | 6 of 6 | 1 of 18 |
| QINHQGLSANLNNRNVA | AKNLRVD | QQYNRLPLS | En_Gibbs | 0.54 | 6 of 6 | 1 of 18 |
| LISGVWDYGSRNYNSVA | QTSTREN | QQYDRLPLS | En_HC | 1.11 | 6 of 6 | 0 of 18 |
| KLQQSEEYESRNFNSVA | EASCRNK | QQYHRLPLS | GP_Gibbs | 1.19 | 6 of 6 | 3 of 18 |
| KITATMRFEQKNKNNIA | EVSTRSK | QQYVRLPLA | En_Gen | -0.07 | 6 of 6 | 0 of 18 |
| NLGGEDANDTRGMAAVA | DVSEVGE | QHYNRLPLS | En_Gibbs | 1.10 | 6 of 6 | 0 of 18 |
| TLVQSVMGSSRTKNSVA | NAETREE | QHYHRLPLS | En_HC | 0.94 | 6 of 6 | 0 of 18 |
| TLAQPQKELGYAKDNIA | DGSIRLG | QQYHRLPLV | En_Gibbs | 0.14 | 6 of 6 | 0 of 18 |
| TISQSAQMELHNKNSVA | DLNVRGS | QQYDRLPLS | En_HC | 0.63 | 6 of 6 | 0 of 18 |
| KLMQSAWLESRNFNAVA | QASQREL | QQYHRLPLS | GP_Gibbs | 1.41 | 6 of 6 | 0 of 18 |
| MISQLINMGSFAINSVA | QAETRNE | QQYDRLPLE | En_Gen | 1.37 | 6 of 6 | 1 of 18 |
| MMSQVWGMGQRHRNNVA | QTSTREE | QQYDRLPLI | En_Gen | 0.27 | 6 of 6 | 1 of 18 |
| MIGEMLMQGQYIRNSVA | QANIRAQ | QHYHRLPLE | En_Gen | 1.56 | 6 of 6 | 1 of 18 |
| KVEWSDLLESRNKQSVA | QASTRES | QQYHRLPLS | GP_Gibbs | 0.20 | 6 of 6 | 1 of 18 |
| KLYSVTGTEKVNGNNVA | EMETREN | QQYNRLPLS | En_Gen | 0.85 | 6 of 6 | 0 of 18 |
| MISQLYNMGQFAINSVA | QASLRCN | QQYDRLPLE | En_Gen | 2.09 | 5 of 6 | 0 of 18 |
| KIGATLNTLMHQKNNVA | DLVEREN | QQYHRLPLS | En_Gen | 1.20 | 6 of 6 | 1 of 18 |
| QLYAVQDTTSKNSNNVA | EQSTREN | QQYHRLPLS | En_HC | 0.72 | 6 of 6 | 0 of 18 |
| KLRHHNLDFYEVENSIA | GESMRAH | QQYYRLPLN | En_Gibbs | 0.98 | 1 of 6 | 0 of 18 |
| KISQMARVGSTHSNSIA | EEATRAK | QQYHRLPLF | En_Gen | 1.86 | 5 of 6 | 1 of 18 |
| TLKMTKLPGQVNAYNIA | NAELVEN | QQYFHLPLY | En_Gibbs | 1.61 | 6 of 6 | 1 of 18 |
| KLTMITGLEKVQGNNVA | EMETRER | QQYNRLPLA | En_Gen | 0.85 | 6 of 6 | 0 of 18 |
| KLPQATMQENVSKNSVA | ELSTRGS | QQYHRLPLS | En_HC | 0.57 | 6 of 6 | 0 of 18 |
| MISQLANMGQFAINSVA | QASLRCN | QQYDRLPLL | En_Gen | 1.24 | 1 of 6 | 0 of 18 |
| TISDLMGHMSRAHNNVA | DMDTRGE | QQYNRLPLS | En_Gen | -0.17 | 6 of 6 | 1 of 18 |
| MIHEMMGLVSHKQSSIA | DNSTRYD | QQYDRLPLS | En_Gen | 1.04 | 5 of 6 | 0 of 18 |
| QLPEVDSGDTLSQGAIA | HAAELVD | QQYFRLPLL | En_Gibbs | 0.46 | 6 of 6 | 2 of 18 |
| MISQLMNMGTFAINSVA | QASLRNE | QQYDRLPLI | En_Gen | 1.56 | 6 of 6 | 0 of 18 |
| KFSYSVLYEDRNQNSVA | SASQREQ | QQYHRLPLS | GP_Gibbs | 0.37 | 6 of 6 | 0 of 18 |
| KLSQSVLYERRNKNSIW | SASTRES | MVYHRLPLS | Ctrl | nd | 0 of 6 | 0 of 18 |

Picked from the list: the 4 lowest averages where every replicate gave a value.

| CDR-L1 | CDR-L2 | CDR-L3 | group | log10 Kd (nM), mean | detected | signal with controls |
|---|---|---|---|---|---|---|
| TISDLMGHMSRAHNNVA | DMDTRGE | QQYNRLPLS | En_Gen | -0.17 | 6 of 6 | 1 of 18 |
| KLSQEDWYQSRMDNSVA | DASTRES | QQYHRLPLS | GP_Gibbs | -0.12 | 6 of 6 | 1 of 18 |
| KITATMRFEQKNKNNIA | EVSTRSK | QQYVRLPLA | En_Gen | -0.07 | 6 of 6 | 0 of 18 |
| SIYDATGMESRNKNPIA | DVSTRPS | QQYHRLPLS | En_HC | -0.06 | 6 of 6 | 0 of 18 |